Compounds with a hit are over-represented: about 1.2% of the library has one in this group of screens.
TbMetRS inhib – T. brucei MetRS inhibitors, primary screen, biochemical, luminescence. purified T. brucei MetRS, ATP depletion, Kinase-Glo luminescence. inhibition, % at 11.9 µM. actives 0.4% (n = 360,000). AID 624268, 2012;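 active means inhibition above a per-plate cutoff of the control wells' mean inhibition plus 3 SD, cut at about 5.5% in these data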;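 further: 0% = DMSO wells median and 100% = median of wells with control inhibitor compound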
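technique = Kinase-Glo luminescence, ATP depletion format | system = purified MetRS (methionyl-tRNA synthetase) enzyme from Trypanosoma brucei | timing = 15 min preincubation, 2 h reaction, all 25 °C | evaluation = percent inhibition versus plate control medians | dosing = single dose, 11.9 µM final nominal, 0.9% final DMSO | also added = substrates ATP, L-methionine and bulk Escherichia coli tRNA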
Pemphigus Ab inh – inhibitors of pemphigus antibody binding to DSG3, primary screen, biochemical, bead-based, flow cytometry, scFv-GFP; Desmoglein-3 (Homo sapiens), P32926; DSG3-coupled beads, scFv-anti-DSG3-GFP binding; hits give low values; binding (percent of control), % at 10 µM; actives 0.48% (n = 310,000);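 active means binding more than 3 SD below its plate's average and above zero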;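 further: hits lower antibody fragment binding to DSG3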
UUG fidelity – yeast start codon fidelity modulation | S. cerevisiae UUG-firefly luciferase reporter, luminescence/redox ratio | activity score, % at 18.7 µM | hit rate 0.13% among 350,000 | AID 602363;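 active means replicate mean at a twofold rise or more, about +100% in these data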;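 further: firefly luciferase made from a UUG start codon reports start codon fidelity; reporter light over untreated wells divided by growth signal over untreated wells; some hits fall short of that in this replicate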
Rce1 inh – yeast Rce1p protease inhibitors, primary screen, biochemical, fluorescence, cell-free homogeneous; AID 2563, 2010; calls only; yeast membranes, quenched prenylated peptide cleavage fluorescence; actives 0.27% (n = 290,000);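 active means fall in fluorescence gain of 50% or more versus controls, with final raw signal at or below 3038400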;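 further: plate controls were neutral control wells for no effect and wells lacking membranes for full effect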
Arrestin-AP2 inh – inhibitors of beta-arrestin/AP2 binding, primary screen, biochemical, GPCR trafficking, flow cytometry. inhibition, % at 10 µM. FITC-arrestin peptide / GST-AP2 beads; AP2 beta2 appendage carries R879A mutation. actives 0.31% (n = 340,000). beta-arrestin 1 C-terminal peptide binding to AP2 beta2-adaptin appendage (human). AID 504490, 2011;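 active means inhibition above a set limit, near 3 SD of compounds lacking own fluorescence, cut at about 54% in these data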;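 further: plate controls were DMSO wells for no effect and 5 µM unlabelled arrestin peptide for full effect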
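Assay system: GST-AP2 R879A bound to glutathione beads, E. coli-expressed; Medium: PBS with 0.05% Tween 20 and 0.1% BSA; Also added: fluorescein-tagged arrestin peptide at 50 nM final; Timing: 12 min plus 1 h, RT; Measured by: flow cytometry, FL1 (488/535 nm); Evaluation: percent drop in bead-associated FITC signal.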
TbMetRS confirm – T. brucei MetRS inhibitors, confirmation, biochemical, luminescence | inhibition, % at 11.9 µM | AID 624412, 2012 | shares compounds with TbMetRS inhib | T. brucei MetRS enzyme, luminescence (ATP depletion) | actives 93% (n = 1,400); in the data active means inhibition above about 7%
Jurkat cytotox – Jurkat T cell cytotoxicity, cytotoxicity control for T. brucei MetRS inhibitor project, luminescence, high throughput | inhibition, % at 8.3 µM | actives 12% (n = 1,400) | shares compounds with TbMetRS inhib | Jurkat cells viability, ATP luminescence; in the data active means inhibition above about 15%;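 further: 0% = vehicle and 100% = reference inhibitor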
TbMetRS FP orth – T. brucei MetRS inhibitors, orthogonal assay for T. brucei MetRS inhibitor project, biochemical, fluorescence polarization. purified T. brucei MetRS. shares compounds with TbMetRS inhib. AID 651607, 2012. inhibition, % at 11.9 µM. actives 44% (n = 1,400); in the data active means inhibition above about 17%;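 further: 0% = vehicle wells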
* = called active by the depositor; i = inactive; nt = no result.

SMILES	TbMetRS inhib	Pemphigus Ab inh	UUG fidelity	Rce1 inh	Arrestin-AP2 inh	TbMetRS confirm	Jurkat cytotox	TbMetRS FP orth
COc1ccc(C(=O)N/C(=C\c2ccc3c(c2)OCO3)C(=O)NCCc2nc3ccccc3[nH]2)cc1	6.9*	106	nt	i	8	11*	1	7
O=C(NCCCCc1ccccc1)Nc1ccc(F)cc1	15*	101	-13	i	-1	32*	-1	21*
COC(=O)/C(=C\Nc1ccc(OC)cc1)NC(=O)c1ccc(Cl)cc1Cl	20*	108	-8	i	-3	57*	7	30*
O=C(Nn1c(-c2ccc(Br)cc2)nc2ccccc2c1=O)c1ccc([N+](=O)[O-])cc1	8.7*	104	nt	i	0	18*	6	4
O=C(Nc1cc(F)ccc1F)c1ccc(-n2cncn2)c([N+](=O)[O-])c1	36*	98	-6	i	-3	57*	2	33*
O=C(Nc1ccc(F)c(F)c1)c1ccc(-n2cncn2)c([N+](=O)[O-])c1	37*	101	-7	nt	3	58*	13	29*
Cc1cccc(NC(=O)c2ccc(-n3cccn3)c([N+](=O)[O-])c2)c1	0	110	-33	i	15	nt	nt	nt
O=C(Nc1cccc(/C=C/c2ccccn2)c1)c1ccc(-n2cncn2)c([N+](=O)[O-])c1	23*	103	-17	i	-10	62*	22*	55*
O=C(NNC(=O)c1ccccc1F)c1ccc(-n2cncn2)c([N+](=O)[O-])c1	3	98	nt	i	-10	nt	nt	nt
COc1cccc(C#Cc2cnc3c(c2)C(=O)N([C@@H](C)CO)C[C@H](C)[C@H](CN(C)C)O3)c1	nt	nt	2	nt	nt	nt	nt	nt
O=C(Nc1ccc(N2CCOCC2)c2nonc12)C1CCCC1	0	94	-19	i	-7	nt	nt	nt
Nc1ccc(N2CCOCC2)c2nonc12	26*	97	-19	i	11	4	-5	1
CCOC(=O)c1nnn(CC(=O)NC(=O)Nc2ccccc2)c1C(=O)OCC	7.3*	102	nt	i	43	20*	-8	6
Nc1nc(Nc2cccc(F)c2)nc2ccccc12	24*	107	-8	i	6	34*	15	20*
C[C@@H]1CCCCO[C@H](CN(C)Cc2ccc3c(c2)OCO3)[C@@H](C)CN([C@@H](C)CO)C(=O)c2cc(NC(=O)Nc3ccc(F)cc3)ccc2O1	nt	nt	16	nt	nt	nt	nt	nt
C=CCNCCCCOc1ccc(Br)cc1C	4	101	nt	i	-5	nt	nt	nt
Cc1cc(Br)ccc1OCCCCNCCO	6.1*	106	-13	i	2	11*	5	5
Cc1noc(C)c1NC(=O)Nc1cccc2c1O[C@@H](CN(C)S(=O)(=O)c1ccc(Cl)cc1)[C@@H](C)CN([C@@H](C)CO)C2=O	nt	nt	2	nt	nt	nt	nt	nt
O=C(N[C@H]1C=C[C@H](CC(=O)N2CCc3ccccc3C2)O[C@@H]1CO)C1CCC1	nt	nt	-3	nt	nt	nt	nt	nt
CCC(=O)c1c[nH]c(C(=O)NCc2ccccc2OC)c1	1	99	-3	i	17	nt	nt	nt
CCC(=O)c1c[nH]c(C(=O)NCc2cccc(C(F)(F)F)c2)c1	6.0*	98	-10	i	2	12*	5	9

A portion taken from the entries so far:
SMILES	TbMetRS inhib	Pemphigus Ab inh	UUG fidelity	Rce1 inh	Arrestin-AP2 inh	TbMetRS confirm	Jurkat cytotox	TbMetRS FP orth
O=C(N[C@H]1C=C[C@H](CC(=O)N2CCc3ccccc3C2)O[C@@H]1CO)C1CCC1	nt	nt	-3	nt	nt	nt	nt	nt
CCC(=O)c1c[nH]c(C(=O)NCc2ccccc2OC)c1	1	99	-3	i	17	nt	nt	nt
CCC(=O)c1c[nH]c(C(=O)NCc2cccc(C(F)(F)F)c2)c1	6.0*	98	-10	i	2	12*	5	9

Screening data from PubChem.
